JMJD2E inh = blocks human JMJD2E demethylase activity. B2RXH2. JMJD2E catalytic domain, FDH-coupled NADH fluorescence (FDH is formaldehyde dehydrogenase). Potency, µM (top dose mostly 57.1 µM), for the others: top-dose activity change, negative = inhibition, most hits filed as inhibitors. actives 1.6% (n = 230,000). AID 2147; active means well fitted inhibition curve with a large enough effect, not every such curve was filed as active; inconclusive means small, poorly fitted or top-dose-only effect, or another doubt; inactive means no such curve, though single readings can be large or run the other way;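 further: potency means the concentration at half of the fitted maximal effect; 0% = wells with enzyme and -100% = buffer wells without enzyme; nearly all actives have a fitted effect of over 50% in size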
miR-21 reporter = raises the signal of a miR-21 reporter. HeLa miR-21 FLuc reporter, luciferase, 48 h. 340,000 tested, under 10 active. Potency, µM (highest dose often 38.3 µM), for the others: at the highest dose reporter change, positive = more light; active = well fitted rising curve with a large enough effect; inconclusive = small, poorly fitted or top-dose-only effect; inactive = no such curve, though single readings can be large or run the other way;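 note: % of control where 0% means no effect; miR-21 action dims this reporter so a rising signal means less miR-21 action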
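HeLa cells endogenously expressing miR-21, stably carrying CMV-driven firefly luciferase with a downstream miR-21 binding site, 2000 cells/well. Titrations up to approximately 40 uM, 48 hours; luciferase luminescence read.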
Sfp inh = inhibitors of Bacillus subtilis Sfp phosphopantetheinyl transferase. Q9F4F7. Biochemical Sfp PPTase activity, qHTS. Potency, µM, inactives show max response, negative = inhibition, most hits filed as inhibitors. 3.5% of 310,000 active. AID 1490; active = well fitted inhibition curve with a large enough effect; inconclusive = small, poorly fitted or top-dose-only effect, or another doubt; inactive = no such curve, though single readings can be large or run the other way;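 also: the enzyme is Sfp with the accession as filed and its product quenches rhodamine fluorescence; potency is read from the fitted curve at half-maximal effect; 0% = enzyme reaction without inhibitor and -100% = no enzyme wells; top concentration of the series not given in the record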
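After 15 min at room temperature with compound, 15 nM Sfp received 5 uM rhodamine-CoA plus 12.5 uM BHQ-2-ybbR (50 mM Hepes pH 7.6, 10 mM MgCl2). Rate came from the fluorescence difference over 30 min, ex 525/em 598 nm.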
ALDH1A1 inh = ALDH1A1 (human) enzyme inhibition | AID 1030 | actives 7.3% (n = 220,000) | Potency, µM (titrated, usually from 75.3 µM), inactives show at the highest dose activity, negative = inhibition, actives largely listed as inhibitors | Purified ALDH1A1, NADH fluorescence, propionaldehyde substrate | P00352; active means well fitted inhibition curve with a large enough effect, not every such curve was filed as active; inconclusive means small, poorly fitted or top-dose-only effect, or another doubt; inactive means no such curve, though single readings can be large or run the other way;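 further: potency means the concentration at half of the fitted maximal effect; plate controls were no enzyme wells and a reference inhibitor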
Lamin A splicing = LMNA splicing modulation | HeLa LMNA splicing GFP/RFP minigene ratio, 48 h | Potency, µM (titrated, usually from 46.1 µM), inactives show at the top dose ratio change, negative = inhibition, usual class: inhibitors | actives 0.01% (n = 200,000); active means well fitted inhibition curve with a large enough effect in the signal ratio, with a control signal flat, not every such curve was filed as active; inconclusive means small, poorly fitted or top-dose-only effect, or effect the other way, or a change in a side signal; the % refers to the signal ratio; further: potency means the concentration at half of the fitted maximal effect; on the % scale 0 is the no-effect control and ±100 the full control effect
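S3 HeLa cells stably expressing lamin A-EGFP splicing minigene plus DsRed2, 600 cells/well, 48 h compound exposure at 37C. Laser-scanning cytometry; analysed as GFP (500-530 nm)/RFP (575-640 nm) total intensity ratio; 0.5% DMSO vehicle.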
G9a block = inhibitors of human histone lysine methyltransferase G9a; Q96KQ7; G9a H3K9 monomethylation, AlphaScreen, 2 h; Potency, µM (series often up to 102 µM), for the others: at the highest dose activity, negative = inhibition, hits mostly inhibitors; actives 8.8% (n = 350,000); AID 504332; further: potency means the concentration at half of the fitted maximal effect; on the % scale 0 is the no-effect control and ±100 the full control effect; nearly all actives have a fitted effect of over 75% in size
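G9a (20 nM) was preincubated 15 min with compound, then reacted 2 h at room temperature with 500 nM biotin-H3K9 peptide and 20 µM SAM. Monomethyl-H3K9 detected by AlphaScreen using anti-H3K9me1 antibody.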
Active calls of the source: *; [ ] = dose if it differs, or a comment. An excerpt weighted towards active compounds, which were near 13% of everything screened. Unless noted, the call rests on the fitted dose curve; in most records, active means well fitted curve in the direction sought with a large enough effect; inconclusive means small, poorly fitted or top-dose-only effect, or another doubt; inactive means no such curve, though single readings can be large; an effect the other way counts as inactive or inconclusive.

`S=C(Nc1ccc(Br)cc1Cl)Nn1cnnc1` gave JMJD2E inh 0.2%, miR-21 reporter -2.2%, Sfp inh 22.4µM*, ALDH1A1 inh 7.94µM*, Lamin A splicing -20.6%[46 µM] and G9a block inconclusive.
Screening Cc1ccc(Cl)cc1N1CCN(c2nc3ccccc3c3nc(-c4cccnc4)nn23)CC1 returned miR-21 reporter -4.3% and G9a block inconclusive.
For O=C(O)CCCn1c(O)c(C=C2N=c3ccccc3=N2)sc1=S the results were JMJD2E inh -0.2%, miR-21 reporter -5.0%, Sfp inh 12.1% and G9a block -107.3%[59 µM].
Screening O=C(O)c1cccc(-n2c(O)c(C=C3N=c4ccccc4=N3)sc2=S)c1 returned JMJD2E inh 11.9%, miR-21 reporter -1.5%, Sfp inh 4.1% and G9a block 50.1µM*.
For O=C(O)CCCCCn1c(O)c(C=C2N=c3ccccc3=N2)sc1=S the results were JMJD2E inh -1.7%, miR-21 reporter 0.5%, Sfp inh inconclusive, ALDH1A1 inh -15.0%, Lamin A splicing -13.3% and G9a block 8.91µM*.
Screening O=C(O)c1ccc(-n2c(O)c(C=C3N=c4ccccc4=N3)sc2=S)cc1 returned JMJD2E inh 1.5%, miR-21 reporter -30.6%, Sfp inh -0.5% and G9a block inconclusive.
`O=C(Nc1cccs1)Nc1c(F)cc(F)cc1Br` gave JMJD2E inh -7.6%, miR-21 reporter -6.3%, Sfp inh inconclusive, ALDH1A1 inh inconclusive, Lamin A splicing -26.0% and G9a block -5.5%[59 µM].
O=C(Nc1cccs1)Nc1c(F)c(F)c(F)c(F)c1F was read as JMJD2E inh 4.3%, miR-21 reporter 4.1%, Sfp inh 44.7µM*, ALDH1A1 inh 2.6%, Lamin A splicing inconclusive and G9a block 25.3%[59 µM].
`Cc1cccc(C)c1NC(=O)Nc1cccs1` gave JMJD2E inh -3.3%, miR-21 reporter -0.6%, Sfp inh 56.2µM*, ALDH1A1 inh -10.7%, Lamin A splicing inconclusive and G9a block 50.1µM*.
Screening O=C(Nc1cccs1)Nc1c(F)c(F)cc(F)c1F returned JMJD2E inh 1.7%, miR-21 reporter 0.6%, Sfp inh 44.7µM*, ALDH1A1 inh 1.4%, Lamin A splicing inconclusive and G9a block -8.0%[59 µM].

Reprinted from the part before: 2 entries; new compounds follow.
`Cc1cccc(C)c1NC(=O)Nc1cccs1` gave JMJD2E inh -3.3%, miR-21 reporter -0.6%, Sfp inh 56.2µM*, ALDH1A1 inh -10.7%, Lamin A splicing inconclusive and G9a block 50.1µM*.
Screening O=C(Nc1cccs1)Nc1c(F)c(F)cc(F)c1F returned JMJD2E inh 1.7%, miR-21 reporter 0.6%, Sfp inh 44.7µM*, ALDH1A1 inh 1.4%, Lamin A splicing inconclusive and G9a block -8.0%[59 µM].
`COc1ccc(CCNC(=O)c2ccc3nc(N4CCCCC4)sc3c2)cc1OC` gave miR-21 reporter -4.9%, Sfp inh -7.1% and G9a block inconclusive.
For CCOC(=O)c1c(NC(=O)CSc2cn(CCNC(=O)c3ccc(OC)c(OC)c3)c3ccccc23)sc2c1CCC2 the results were miR-21 reporter -4.5% and G9a block 2.1%[59 µM].
For COc1ccc(-c2nc(SCC(=O)NC3CCCC3)c(-c3ccc(C)cc3)[nH]2)cc1OC the results were miR-21 reporter 11.3% and G9a block inconclusive.
CCNC(=O)C(=O)N/N=C/c1cc([N+](=O)[O-])ccc1O was read as JMJD2E inh 25.1µM*, miR-21 reporter -0.5%, Sfp inh 15.4%, ALDH1A1 inh -2.6% and G9a block 9.4%.
Screening O=[N+]([O-])c1cccc(N/N=C/c2cc([N+](=O)[O-])ccc2O)c1 returned JMJD2E inh 1.7%, miR-21 reporter -25.5%, Sfp inh -0.6%, ALDH1A1 inh 3.0%, Lamin A splicing -4.1%[46 µM] and G9a block -5.2%.
Screening O=C(N/N=C/c1cc([N+](=O)[O-])ccc1O)C12CC3CC(CC(C3)C1)C2 returned JMJD2E inh inconclusive, miR-21 reporter -0.1%, Sfp inh 19.4%, ALDH1A1 inh 0.891µM*, Lamin A splicing inconclusive and G9a block -6.4%.
O=C(N/N=C/c1cc([N+](=O)[O-])ccc1O)Nc1ccccc1 was read as JMJD2E inh 28.2µM*, miR-21 reporter 3.1%, Sfp inh 14.7%, ALDH1A1 inh -11.6%, Lamin A splicing -21.4%[46 µM] and G9a block 3.5%.

Compound activity (PubChem)
